Experiments:
ACh release = experiment: Neurotransmitter release assay: stimulated ACh release from brain slices; set-up: species or system rat; conditions: concentration to enhance stimulated release of ACh by 100% (2-fold) over control, from dose response curves
Protocol: Male Wistar rats weighing 175-200 g were euthanatized and the brains were dissected out immediately. Slices (0.3 mm thick) from the parietal cortex were prepared manually by using a recessed Lucite® guide. Slices (1.5 mm thick) from the hippocampus and the caudate nucleus were prepared by using a slotted brain holder. All slices were subsequently cut into 0.25×0.25 mm squares with a McIlwain tissue chopper.
Labeling of transmitter stores in slices was prepared by the following methods. For ACh release, slices (approximately 100 mg wet weight) were incubated in 10 ml Krebs-Ringer (KR) medium containing (mM): NaCl(116), KCl(3), CaCl2 (1.3), MgCl2 (1.2), KH2 PO4 (1.2), Na2 SO4 (1.2), NaHCO3 (25) and glucose(11), to which 10 μCi ^3 H-choline (specific activity approx. 80 Ci/mmol: NEN) and 10 nmol unlabeled choline had been added to give a final concentration of 10^-6 M. Incubation was carried out for 30 min at 37° C. under a steady flow of 95% O2 /5% CO2. Under these conditions, part of the radioactive choline taken up is converted into radioactive ACh by cholinergic nerve endings, stored in synaptic vesicles, and released upon depolarization by high-K^+ -containing medium [Molenaar et al., 1973a]. […]
After 15 min washout of non-specifically bound radioactivity during superfusion, the collection of fractions of 4 min (1.2 ml) each was started. […]

DuP 996 binding protein = experiment: Specificity of the DuP 996 binding protein (displacement of tritiated DuP 996 by pharmacological standards); set-up: species or system rat; conditions: receptor and ion channel ligands and neuropeptides against 10 nM tritiated DuP 996

O=C1N(c2ccccc2)c2ccccc2C1(Cc1ccncc1)Cc1ccncc1 [Compound 7, 3,3-Bis(4-pyridinylmethyl)-1-phenylindolin-2-one]
ACh Release EC100 (ACh release): 1,500 nM

thyrotropin
ability to displace tritiated DuP 996 binding from the binding protein (DuP 996 binding protein): None of these pharmacological standards was able to displace

Reference: patent US5278045A, “Method and compositions to screen compounds for enhancement of the cholinergic, dopaminergic and serotonergic function” (Du Pont Merck Pharmaceutical Company, priority 1990, dated 1994)
